Test results from patent publication EP0710486A1, “REMEDY FOR URINATION DISORDER ACCOMPANYING PROSTATIC HYPERTROPHY” (YAMANOUCHI PHARMACEUTICAL CO. LTD., priority 1993, dated 1995).

The chains behind the UniProt entries cited, without tags or fusion partners.
UniProt P15823, whole entry: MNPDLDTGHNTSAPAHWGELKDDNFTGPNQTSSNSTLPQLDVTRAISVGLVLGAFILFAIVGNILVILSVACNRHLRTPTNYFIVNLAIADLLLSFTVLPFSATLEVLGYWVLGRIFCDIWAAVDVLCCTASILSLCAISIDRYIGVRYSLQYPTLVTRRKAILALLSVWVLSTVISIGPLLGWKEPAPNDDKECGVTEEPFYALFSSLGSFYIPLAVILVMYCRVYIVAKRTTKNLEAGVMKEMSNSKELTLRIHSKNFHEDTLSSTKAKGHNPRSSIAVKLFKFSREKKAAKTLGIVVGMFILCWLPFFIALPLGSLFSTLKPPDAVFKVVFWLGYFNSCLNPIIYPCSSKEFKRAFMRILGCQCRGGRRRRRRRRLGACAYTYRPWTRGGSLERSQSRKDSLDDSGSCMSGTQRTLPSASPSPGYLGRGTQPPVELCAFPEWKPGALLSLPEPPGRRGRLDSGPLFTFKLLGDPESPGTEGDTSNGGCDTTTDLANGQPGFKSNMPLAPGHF
UniProt P23944, whole entry: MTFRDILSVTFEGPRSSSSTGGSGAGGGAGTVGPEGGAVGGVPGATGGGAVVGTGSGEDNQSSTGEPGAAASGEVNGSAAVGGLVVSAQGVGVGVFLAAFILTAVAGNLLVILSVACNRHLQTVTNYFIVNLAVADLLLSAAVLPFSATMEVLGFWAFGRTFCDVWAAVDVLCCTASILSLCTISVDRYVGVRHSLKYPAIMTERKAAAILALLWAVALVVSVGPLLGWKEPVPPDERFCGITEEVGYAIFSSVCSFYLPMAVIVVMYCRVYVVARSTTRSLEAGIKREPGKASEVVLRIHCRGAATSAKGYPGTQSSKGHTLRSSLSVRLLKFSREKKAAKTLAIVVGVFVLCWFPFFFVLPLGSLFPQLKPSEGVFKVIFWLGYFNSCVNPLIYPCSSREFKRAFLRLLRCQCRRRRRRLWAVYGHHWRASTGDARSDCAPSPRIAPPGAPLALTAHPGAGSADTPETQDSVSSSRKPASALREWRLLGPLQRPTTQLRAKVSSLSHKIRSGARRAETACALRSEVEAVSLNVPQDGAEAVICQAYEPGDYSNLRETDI

How the values were obtained:
rat α1B-receptor subtype = rat α1B-receptor subtype (Rattus norvegicus, UniProt P15823); conditions: COS-7 membranes, 25°C, 45 minutes, average ± SEM, n=5
Protocol: (§1) After 4 days of the transfection, these cells were again suspended in an ice-cold buffer for binding experiment (50 mmol/l Tris, 0.5 mmol/l EDTA, pH 7.5) and homogenized using Tissumeizer for 10 seconds at a maximum speed and then twice for 20 seconds at 2/3 speed. The thus obtained homogenate was centrifuged at 50,000 g for 20 minutes, and the resulting pellet was again suspended in the buffer for binding experiment to a concentration of 0.5 to 2 mg/ml.
(§2) This incubation was terminated by quick filtration under a reduced pressure using Whatman GF/C filter paper. Non-specific binding was defined as binding in the presence of 10 µmol/l of phentolamine. […] The protein content was determined in accordance with the Bradford method using bovine IgG as an standard. In the competitive binding experiment, each compound was evaluated by 3 to 4 tests using at least two separate batches of transfected cells.
(§3) The result was shown as the average value ± SEM of n times of tests.

[1] = molecular target: rat α1A/D-receptor subtype (Rattus norvegicus, UniProt P23944); conditions: COS-7 membranes, 25°C, 45 minutes, average ± SEM, n=8
Protocol: as §1, §2, §3

[2] = molecular target: T1, bovine α1C-receptor subtype (Bos taurus, UniProt P18130); assay: Saturation binding of [³H] prazosin to membranes of transfected COS-7 cells; conditions: average ± SEM, n=6
T1 construct: pBCα1c which contains the entire coding region of bovine α1C receptor subtype; expressed in transfected cells; host or cells: COS-7 cells, transient expression, membrane preparation
T1 sequence (P18130 1-466): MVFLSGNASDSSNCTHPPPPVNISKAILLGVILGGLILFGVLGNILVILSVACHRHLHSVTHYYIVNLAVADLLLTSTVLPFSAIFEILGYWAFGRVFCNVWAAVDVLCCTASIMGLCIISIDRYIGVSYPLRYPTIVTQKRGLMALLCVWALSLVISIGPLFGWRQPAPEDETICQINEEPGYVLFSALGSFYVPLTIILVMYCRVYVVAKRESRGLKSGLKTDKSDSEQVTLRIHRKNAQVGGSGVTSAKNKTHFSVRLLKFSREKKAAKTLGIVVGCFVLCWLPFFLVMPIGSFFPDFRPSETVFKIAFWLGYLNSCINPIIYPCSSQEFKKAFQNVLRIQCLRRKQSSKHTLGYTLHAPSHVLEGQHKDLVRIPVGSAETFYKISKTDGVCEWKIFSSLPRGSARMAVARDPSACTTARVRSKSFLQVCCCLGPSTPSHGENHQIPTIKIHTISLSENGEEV

Substance [³H] prazosin has a Kd (rat α1B-receptor subtype) of 178 ± 87 pM, a Kd [1] of 148 ± 15 pM and a Kd ([2]; COS-7 membranes, 25°C, 45 minutes) of 252 ± 51 pM. For the same substance, the BMAX [2] was 492 ± 177 fmol/mg protein.
